In US5458889A (priority 1986, dated 1995):

Tested on: Streptococcus Faecalis
Format: cell-based

Compound: F [fluoride anion F^-]
- effect on the unfavourable effect of the serous proteins: advantageously decreases the unfavourable effect of the serous proteins
